Literature values, collected in patent US11180463B2, “Thiazole inner salt compounds, and preparation methods and uses thereof” (Institute of Pharmacology and Toxicology Academy of …, priority 2013, dated 2021).

System: long-term diabetic rats
Details: rat, in vivo; cited from earlier work

## Cc1csc[n+]1CC(=O)O.[Na+] [Formula A, 3-carboxymethyl-4metyl-bromothiazolium sodium salt, reference compound]
  total peripheral resistance: reduced
